The chains behind the UniProt entries cited, without tags or fusion partners. Where a name states a change or a piece, a line headed by the entry shows the natural chain unless it says otherwise.
UniProt P23458: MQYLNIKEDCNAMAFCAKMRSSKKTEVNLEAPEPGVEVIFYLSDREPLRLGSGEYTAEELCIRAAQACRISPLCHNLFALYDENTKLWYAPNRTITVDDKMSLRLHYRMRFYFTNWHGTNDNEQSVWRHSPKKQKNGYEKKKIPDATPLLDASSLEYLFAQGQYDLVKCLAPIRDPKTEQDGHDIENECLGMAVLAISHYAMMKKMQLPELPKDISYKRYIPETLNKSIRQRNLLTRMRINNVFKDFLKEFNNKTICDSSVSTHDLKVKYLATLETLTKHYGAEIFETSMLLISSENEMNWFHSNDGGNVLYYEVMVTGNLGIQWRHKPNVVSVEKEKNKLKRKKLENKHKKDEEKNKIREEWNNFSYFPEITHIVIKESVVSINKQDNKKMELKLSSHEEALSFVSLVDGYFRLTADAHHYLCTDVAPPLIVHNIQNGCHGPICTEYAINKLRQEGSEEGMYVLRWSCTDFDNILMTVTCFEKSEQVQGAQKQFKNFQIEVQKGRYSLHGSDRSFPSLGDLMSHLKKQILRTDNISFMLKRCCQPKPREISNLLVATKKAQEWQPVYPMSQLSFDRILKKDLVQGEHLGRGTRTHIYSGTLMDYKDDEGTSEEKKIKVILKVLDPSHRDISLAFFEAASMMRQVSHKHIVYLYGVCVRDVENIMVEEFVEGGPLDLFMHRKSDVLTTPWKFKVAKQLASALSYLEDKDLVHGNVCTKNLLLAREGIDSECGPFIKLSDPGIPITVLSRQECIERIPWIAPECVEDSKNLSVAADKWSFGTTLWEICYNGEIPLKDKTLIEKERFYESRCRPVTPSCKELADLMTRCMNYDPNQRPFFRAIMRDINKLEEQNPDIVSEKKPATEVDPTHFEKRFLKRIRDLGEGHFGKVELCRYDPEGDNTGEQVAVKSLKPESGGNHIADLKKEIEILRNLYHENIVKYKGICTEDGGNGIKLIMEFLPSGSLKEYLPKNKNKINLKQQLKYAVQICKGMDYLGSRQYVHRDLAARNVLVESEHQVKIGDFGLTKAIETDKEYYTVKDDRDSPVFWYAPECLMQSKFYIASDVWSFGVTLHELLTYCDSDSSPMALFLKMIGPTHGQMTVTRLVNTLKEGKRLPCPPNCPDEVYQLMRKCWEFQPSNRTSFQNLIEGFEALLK
UniProt O60674: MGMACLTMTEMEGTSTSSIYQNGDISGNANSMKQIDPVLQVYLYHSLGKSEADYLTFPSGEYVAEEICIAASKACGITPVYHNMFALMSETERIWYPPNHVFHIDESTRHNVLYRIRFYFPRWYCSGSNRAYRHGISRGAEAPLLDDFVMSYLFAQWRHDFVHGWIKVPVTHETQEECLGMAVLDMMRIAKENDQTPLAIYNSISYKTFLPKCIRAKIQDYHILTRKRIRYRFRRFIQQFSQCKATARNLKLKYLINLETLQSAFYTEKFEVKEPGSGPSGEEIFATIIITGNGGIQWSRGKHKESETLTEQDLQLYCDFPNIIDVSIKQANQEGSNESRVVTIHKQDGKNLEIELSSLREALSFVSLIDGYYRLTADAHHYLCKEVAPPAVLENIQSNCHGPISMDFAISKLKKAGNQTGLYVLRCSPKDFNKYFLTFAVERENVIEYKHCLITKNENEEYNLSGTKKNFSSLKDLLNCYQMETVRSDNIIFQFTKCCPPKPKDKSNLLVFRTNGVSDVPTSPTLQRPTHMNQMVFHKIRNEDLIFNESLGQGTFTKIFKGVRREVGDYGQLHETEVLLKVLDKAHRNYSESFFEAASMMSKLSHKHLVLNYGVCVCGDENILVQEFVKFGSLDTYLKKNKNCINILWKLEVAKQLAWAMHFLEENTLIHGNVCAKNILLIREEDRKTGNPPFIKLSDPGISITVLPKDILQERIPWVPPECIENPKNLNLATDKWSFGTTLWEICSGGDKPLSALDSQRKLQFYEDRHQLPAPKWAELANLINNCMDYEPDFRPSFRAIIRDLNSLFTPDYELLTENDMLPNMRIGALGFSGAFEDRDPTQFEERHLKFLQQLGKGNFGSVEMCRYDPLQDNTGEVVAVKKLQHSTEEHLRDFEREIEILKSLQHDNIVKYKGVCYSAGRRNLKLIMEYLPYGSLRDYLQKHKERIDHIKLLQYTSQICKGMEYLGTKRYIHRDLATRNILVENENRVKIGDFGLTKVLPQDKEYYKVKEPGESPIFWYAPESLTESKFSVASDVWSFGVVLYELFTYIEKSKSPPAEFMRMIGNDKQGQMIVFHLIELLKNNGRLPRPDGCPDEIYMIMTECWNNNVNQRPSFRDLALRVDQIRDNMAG

In ChEMBL document CHEMBL3621116, “Benzimidazole Derivatives as Potent JAK1-Selective Inhibitors” (J Med Chem, 2015):

Legend:
[1] = target: T1, Tyrosine-protein kinase JAK1 (Homo sapiens, UniProt P23458); experiment: Inhibition of JAK1 (unknown origin) using 1 mM of ATP and Tyr6 peptide by Z'-LYTE kinase assay
[2] = target: T1, Tyrosine-protein kinase JAK1; experiment: Inhibition of JAK1 (unknown origin) using 87 uM of ATP and Tyr6 peptide by Z'-LYTE kinase assay
Procedure, shortened: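 Pyridone-6, a pan-JAK inhibitor, served as positive control. IC50 given as mean ± SD of three independent experiments.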

[3] = target: Tyrosine-protein kinase JAK2 (Homo sapiens, UniProt O60674); experiment: Inhibition of JAK2 (unknown origin)

SMILES | IC50 [1] | IC50 [2] | IC50 [3]
CC(C)(C)c1nc2c3ccc(F)cc3c3c(=O)[nH]ccc3c2[nH]1 | 600 nM | 4 nM | 
CCS(=O)(=O)N1CC(CC#N)(n2cc(-c3ncnc4[nH]ccc34)cn2)C1 [BARICITINIB] |  |  | 6 nM
